The entries are a selection whose mix differs from that of the whole data set. Some structures show a salt or complex split into parts, the way the source records it. Active and inactive are the calls of the source. Rule as the data show it: active = inhibition above about 13%; inactive = the rest.
Each compound was assayed against Methyl-CpG-binding domain protein 2 (Homo sapiens) (UniProt Q9UBB5) (assay: inhibitors of MBD2 binding to methylated DNA, primary screen, biochemical, TR-FRET, DNA-binding domain, human (AID 686964)). Conditions: MBD2 binding to methylated oligonucleotide, at 4.4 µM, active compounds read high.

The chains behind the UniProt entries cited, without tags or fusion partners.
UniProt Q9UBB5, whole entry: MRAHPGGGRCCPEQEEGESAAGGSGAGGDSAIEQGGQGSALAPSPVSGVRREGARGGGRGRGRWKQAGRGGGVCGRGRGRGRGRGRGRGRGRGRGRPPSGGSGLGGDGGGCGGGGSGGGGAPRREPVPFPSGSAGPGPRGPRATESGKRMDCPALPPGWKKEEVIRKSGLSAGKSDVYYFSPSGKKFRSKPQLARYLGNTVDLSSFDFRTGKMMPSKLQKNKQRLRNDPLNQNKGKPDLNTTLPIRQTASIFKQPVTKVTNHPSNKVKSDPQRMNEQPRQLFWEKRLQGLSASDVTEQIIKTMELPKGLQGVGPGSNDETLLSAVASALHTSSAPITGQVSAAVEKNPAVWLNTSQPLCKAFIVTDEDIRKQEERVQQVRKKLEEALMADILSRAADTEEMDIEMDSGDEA

SMILES | inhibition
COc1ccccc1OP(C)(=O)Nc1ccc(Br)cc1 (stereo not drawn) | inactive: 0.51%
COc1ccc(OP(C)(=O)Nc2ccccn2)cc1 (stereo not drawn) | inactive: -1.46%
CN(C)CCOC(=O)C(O)(c1ccccc1)C1CCCC1 (stereo not drawn) | inactive: 2.36%
Cc1c(NP(C)(=O)Oc2ccc(C(C)C)cc2)c(=O)n(-c2ccccc2)n1C (stereo not drawn) | inactive: 2.87%
O=[N+]([O-])c1cc([N+](=O)[O-])c(Nc2ccccn2)c([N+](=O)[O-])c1 | inactive: 1.69%
CP(=O)(Nc1ccccn1)Oc1ccccc1 (stereo not drawn) | inactive: -1.78%
COc1ccccc1OP(C)(=O)Nc1ccc(C)cc1C (stereo not drawn) | inactive: -0.91%
CCc1ccc(OP(C)(=O)O)cc1 | inactive: 2.2%
O=C1C(O)=C([N+](=O)[O-])C(=O)C(O)=C1[N+](=O)[O-] | active: 15.4%
Cc1cc(C)cc(OP(C)(=O)Nc2cccc(C(F)(F)F)c2)c1 (stereo not drawn) | inactive: -2.06%
COc1ccccc1OP(C)(=O)Nc1ccc(C)c(C)c1 (stereo not drawn) | inactive: 5.83%
COc1ccc(OP(C)(=O)Nc2ccccc2Br)cc1 (stereo not drawn) | inactive: -1.9%
CP(=O)(Nc1ccc(Cl)cc1Cl)Oc1ccccc1 (stereo not drawn) | inactive: 0.71%
CCCCCCCCCCCCCCCC1C[N+](C)(C)CCOP(C)(=O)O1 (stereo not drawn) | inactive: -4.23%
CP(=O)(OCCOc1ccccc1)OCCOc1ccccc1 | inactive: -3.71%
Nc1ccc2c(ccc3cccnc32)n1.O=[N+]([O-])c1cc([N+](=O)[O-])c(O)c([N+](=O)[O-])c1 | inactive: -3.17%
CCOC(=O)c1ccc(NP(C)(=O)Oc2ccc(Cl)cc2)cc1 (stereo not drawn) | inactive: -6.54%
CP(=O)(OC12CC3CC(CC(C3)C1)C2)OC12CC3CC(CC(C3)C1)C2 | inactive: 1.77%
CCN(CC)CC(O)COC(=O)C(O)(c1ccccc1)C1CCCCC1 (stereo not drawn) | inactive: -2.51%
COc1ccc(OP(C)(=O)Nc2ccc(Br)cc2)cc1 (stereo not drawn) | inactive: 0.91%

SMILES | inhibition
COc1ccccc1OP(C)(=O)Nc1c(C)n(C)n(-c2ccccc2)c1=O (stereo not drawn) | inactive: 1.64%
O=C(OCCCN1CCCC1)C(O)(c1ccccc1)C1CCCCC1 (stereo not drawn) | inactive: 3.87%
CP(=O)(Oc1ccccc1)N1CCOC1=O (stereo not drawn) | inactive: -0.21%
CCc1ccc(OP(C)(=O)Nc2cccnc2)cc1 (stereo not drawn) | inactive: 1.8%
COc1ccccc1OP(C)(=O)Nc1ccccc1Br (stereo not drawn) | inactive: 1.32%
CC(C)(C)c1ccc(OP(C)(=O)O)cc1 | inactive: -5.79%
CP(=O)(Nc1ccc(Cl)cc1)Oc1ccc(F)cc1 (stereo not drawn) | inactive: 9.78%
CN(C)C(=O)c1c([N+](=O)[O-])cc([N+](=O)[O-])cc1[N+](=O)[O-] | inactive: 3.82%
CP(=O)(Nc1ccc(SC(F)(F)F)cc1)Oc1ccc(F)cc1 (stereo not drawn) | inactive: -3.89%
CCOP(C)(=S)SCC(=O)NC(C)(CC)C(=O)O (stereo not drawn) | inactive: 3.13%
CCOP(=O)(CC)OCC | inactive: 3.38%
CP(=O)(Nc1ccc2c(c1)OCCO2)Oc1ccccc1 (stereo not drawn) | inactive: 1.93%
Cc1ccccc1NP(C)(=O)Nc1ccccc1C | inactive: -2.53%
O=[N+]([O-])c1cc([N+](=O)[O-])c(C(F)(F)F)c([N+](=O)[O-])c1O | inactive: 5.23%
COc1ccc(OP(C)(=O)Nc2cccc(Br)c2)cc1 (stereo not drawn) | inactive: 0.62%
CN(C)CCOC(=O)C(O)(c1ccccc1)C1CCCCC1 (stereo not drawn) | inactive: 4.09%
COc1ccc(NP(C)(=O)Oc2ccccc2OC)cc1 (stereo not drawn) | inactive: -0.38%
O=[N+]([O-])c1ccc(OP2(=O)COCCO2)cc1 (stereo not drawn) | inactive: -3.77%
Cc1cc(-c2cccc3ccccc23)c(C)cn1.O=[N+]([O-])c1cc([N+](=O)[O-])c(O)c([N+](=O)[O-])c1 | inactive: 0.79%
O=[N+]([O-])c1cc([N+](=O)[O-])c(NCC2CCS(=O)(=O)C2)c([N+](=O)[O-])c1 (stereo not drawn) | inactive: -0.35%

SMILES | inhibition
Cc1c(C(c2ccc3c(c2)OCO3)c2c(C)n(C)n(-c3ccccc3)c2=O)c(=O)n(-c2ccccc2)n1C.O=[N+]([O-])c1cc([N+](=O)[O-])c(O)c([N+](=O)[O-])c1 | inactive: 4.96%
CCN(CC)CCCNc1ccccc1[N+](=O)[O-].O=[N+]([O-])c1cc([N+](=O)[O-])c(O)c([N+](=O)[O-])c1 | inactive: -17.5%
CCOC(=O)c1ccc(NP(C)(=O)Oc2ccc(F)cc2)cc1 (stereo not drawn) | inactive: -0.7%
COc1ccc(OP(C)(=O)Nc2ccc(SC(F)(F)F)cc2)cc1 (stereo not drawn) | inactive: 2.66%
Cc1c([N+](=O)[O-])cc([N+](=O)[O-])c(Br)c1[N+](=O)[O-] | inactive: -2.33%
CCN(CC)CCCOC(=O)C(O)(c1ccccc1)C1CCCCC1 (stereo not drawn) | inactive: -3.21%
CP(=O)(Nc1ccccc1)Oc1ccc(F)cc1 (stereo not drawn) | inactive: -5.26%
O=[N+]([O-])c1cc([N+](=O)[O-])c(OC2CCCCC2O)c([N+](=O)[O-])c1 (stereo not drawn) | inactive: -3.23%
CCCCCOc1ccc(NP(C)(=O)Oc2ccc(Cl)cc2Cl)cc1 (stereo not drawn) | inactive: -2.21%
O=[N+]([O-])c1cc([N+](=O)[O-])c(Nc2ccc(Cl)cc2)c([N+](=O)[O-])c1 | inactive: -12.3%
CP(=O)(Nc1ccccc1F)Oc1ccccc1 (stereo not drawn) | inactive: 1.9%
CC(C)c1ccc(OP(C)(=O)Nc2ccc(SC(F)(F)F)cc2)cc1 (stereo not drawn) | inactive: -5.83%
O=C(OC1CN2CCC1CC2)c1ccc([N+](=O)[O-])cc1 (stereo not drawn) | inactive: -1.61%
O=C(OCCN1CCN(CCOCc2ccccc2)CC1)C(O)(c1ccccc1)c1ccccc1 | inactive: -0.61%
COc1ccc2c(c1O)-c1c(O)c(OC)cc3c1[C@H](C2)[N+](C)(C)CC3.O=[N+]([O-])c1cc([N+](=O)[O-])c([O-])c([N+](=O)[O-])c1[O-] | inactive: -1.74%
COc1ccccc1OP(C)(=O)Nc1cccc(Br)c1 (stereo not drawn) | inactive: 2.54%
CCOC(=O)c1ccc(NP(C)(=O)Oc2cc(C)cc(C)c2)cc1 (stereo not drawn) | inactive: -5.05%
Cc1cc(C)cc(OP(C)(=O)Nc2ccc(C)cc2C)c1 (stereo not drawn) | inactive: -5.09%

Reference: PubChem BioAssay AID686964 (The Scripps Research Institute Molecular Screening Center, 2013)
